This note sets out measurements from ChEMBL document CHEMBL1146652, “Synthesis and CB1 receptor activities of novel arachidonyl alcohol derivatives” (Bioorg Med Chem Lett, 2004).

Chains of the proteins cited; added tags and fusions are not shown.
UniProt P20272, whole entry: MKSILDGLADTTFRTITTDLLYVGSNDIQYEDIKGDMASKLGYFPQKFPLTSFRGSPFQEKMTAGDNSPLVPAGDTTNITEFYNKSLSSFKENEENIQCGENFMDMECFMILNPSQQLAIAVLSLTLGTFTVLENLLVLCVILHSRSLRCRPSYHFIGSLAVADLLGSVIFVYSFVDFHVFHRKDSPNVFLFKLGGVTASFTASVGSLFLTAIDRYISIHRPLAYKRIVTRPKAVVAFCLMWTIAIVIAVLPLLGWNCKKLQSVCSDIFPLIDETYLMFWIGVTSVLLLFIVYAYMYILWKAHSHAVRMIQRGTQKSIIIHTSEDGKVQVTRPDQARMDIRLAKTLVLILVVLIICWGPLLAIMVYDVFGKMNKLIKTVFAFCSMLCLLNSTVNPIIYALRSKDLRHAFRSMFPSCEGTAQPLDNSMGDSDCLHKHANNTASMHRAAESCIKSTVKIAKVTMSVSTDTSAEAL

This assay concerns the target Cannabinoid receptor 1 (Rattus norvegicus, UniProt P20272). Kind of assay: Cannabinoid receptor 1 dependent activity of compound was evaluated by using [35S]GTP-gamma-S-binding studies. Type of assay: functional. A general note: GTPγS resists hydrolysis and so accumulates on activated G proteins.

As usually defined, the EC50 is the concentration giving half of the maximal effect. Low readings indicate a more potent agent, high ones a less potent agent. Take `CCCCC/C=C\C/C=C\C/C=C\C/C=C\CCCC(=O)NCCO` [ANANDAMIDE]: the concentration for a half-maximal effect (EC50) is 15.8 µM.
